Earlier results on one molecule are cited in patent US20100135905A1, “ASSESSMENT OF CANCER SUSCEPTIBILITY TO MOLECULAR TARGETED THERAPY BY USE OF RECOMBINANT PEPTIDES” (priority 2004, published 2010).

Chains of the proteins cited; added tags and fusions are not shown. Residues count along the entry.
UniProt P09619, 33-1106, species assumed: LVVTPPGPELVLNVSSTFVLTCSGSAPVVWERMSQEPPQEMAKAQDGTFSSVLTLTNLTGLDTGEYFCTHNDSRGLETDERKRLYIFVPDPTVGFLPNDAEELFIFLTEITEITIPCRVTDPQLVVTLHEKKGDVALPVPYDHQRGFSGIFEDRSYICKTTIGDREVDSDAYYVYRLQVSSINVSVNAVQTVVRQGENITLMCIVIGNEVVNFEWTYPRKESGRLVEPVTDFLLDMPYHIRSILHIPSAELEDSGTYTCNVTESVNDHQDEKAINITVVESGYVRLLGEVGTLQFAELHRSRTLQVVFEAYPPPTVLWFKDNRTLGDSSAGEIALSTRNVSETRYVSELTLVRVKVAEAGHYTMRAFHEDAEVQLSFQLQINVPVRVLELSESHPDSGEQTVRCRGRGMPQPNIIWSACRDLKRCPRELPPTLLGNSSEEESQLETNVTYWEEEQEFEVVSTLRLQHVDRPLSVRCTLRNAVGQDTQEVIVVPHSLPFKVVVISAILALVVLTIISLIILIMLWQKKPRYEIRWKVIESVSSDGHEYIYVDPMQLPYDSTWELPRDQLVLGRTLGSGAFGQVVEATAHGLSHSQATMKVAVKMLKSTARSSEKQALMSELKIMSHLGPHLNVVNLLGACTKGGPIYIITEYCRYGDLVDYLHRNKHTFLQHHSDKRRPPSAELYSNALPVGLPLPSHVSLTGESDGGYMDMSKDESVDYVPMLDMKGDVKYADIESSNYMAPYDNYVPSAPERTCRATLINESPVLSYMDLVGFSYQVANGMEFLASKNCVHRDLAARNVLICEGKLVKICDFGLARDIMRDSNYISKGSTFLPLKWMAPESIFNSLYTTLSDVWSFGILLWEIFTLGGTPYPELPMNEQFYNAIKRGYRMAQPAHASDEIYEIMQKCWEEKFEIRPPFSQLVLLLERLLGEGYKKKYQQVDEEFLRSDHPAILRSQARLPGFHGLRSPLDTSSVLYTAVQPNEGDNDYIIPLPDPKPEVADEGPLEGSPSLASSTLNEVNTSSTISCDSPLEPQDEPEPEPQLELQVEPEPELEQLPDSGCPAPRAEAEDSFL

The series has as its target PDGFRβ (Homo sapiens, UniProt P09619). Particulars: biochemical and cellular assays; cited from earlier work.

Structures are written as SMILES.

As for `CCN(CC)CCNC(=O)c1c(C)[nH]c(/C=C2\C(=O)Nc3ccc(F)cc32)c1C` [SU11248], the “Inhibition of PDGFRβ” value is given as “low nM”.
